Compound activity (PubChem)
In the library only some 2.3% were active in any assay of this set; here they are far more common.
ARFGAP1 inh – inhibitors of rat ARFGAP1 GAP activity, primary screen, biochemical, fluorescence polarization, GDP tracer; ADP-ribosylation factor GTPase-activating protein 1 (Rattus norvegicus), Q62848; Arfgap1-stimulated ARF1 GTP hydrolysis, GDP FP detection; inhibition, % at 16.5 µM; 360,000 compounds, 0.26% hits; AID 651572, 2012;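 active means inhibition above a per-plate limit, mean inhibition of low control wells plus 3 SD, cut at about 25% in these data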
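System: truncated rat Arfgap1 GAP domain / Medium: HEPES-based buffer, pH 7.5 / Also added: N-terminally truncated human ARF1-GTP substrate / Incubation: enzyme reaction 120 min at 25 °C after 20 min preincubation / Measured by: FP of antibody-bound GDP Alexa 633 tracer, ex 620/em 688 nm / Replicates: singlicate, each compound tested once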
Yeast UUG start – modulators of start codon recognition fidelity in yeast. activity score, % at 18.7 µM. S. cerevisiae UUG-firefly luciferase reporter, luminescence/redox ratio. 350,000 compounds, 0.13% hits;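 active means replicate mean at a twofold rise or more, about +100% in these data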;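 further: firefly luciferase made from a UUG start codon reports start codon fidelity; reporter light over untreated wells divided by growth signal over untreated wells; some hits fall short of that in this replicate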
MC4R antag cAMP – MC4R antagonists of cAMP signaling, primary screen, cell-based, TR-FRET, antagonist arm of biased-ligand search. inhibition, % at 6.5 µM. MC4R-expressing cells, MTII-stimulated cAMP, LANCE TR-FRET. Melanocortin receptor 4 (Homo sapiens), P32245. 360,000 compounds, 0.48% hits;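 active means inhibition above its plate's cutoff, the mean of tested wells on that plate plus 3 SD, cut at about 29% in these data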
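System – human MC4R-expressing U2OS cells · Also added – Melanotan II · Dosing – one concentration, 6.5 µM nominal · Timing – 30-min compound, 1-h challenge, 1-h detection, room temperature · Measured by – Eu-cAMP/anti-cAMP TR-FRET, emission 671 nm · Replicates – singlicate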
CendR NRP1 mod – modulators of CendR peptide binding to NRP-1, primary screen, biochemical, fluorescence polarization, uHTS; inhibition, % at 25 µM; FAM-RPARPAR peptide binding to NRP-1; Neuropilin-1 (Homo sapiens), O14786; 360,000 compounds, 0.85% hits;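 active means inhibition or corrected inhibition above about 18%, plus a signal ratio from 0.5 to 1.5, limit read from the data, passing the limit was not always enough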
MC4R barr agon – MC4R agonists recruiting beta-arrestin, primary screen, cell-based, luminescence, agonist arm of biased-ligand search. U2OS MC4R beta-arrestin complementation; percent of melanotan II response, DMSO zero. activation, % at 8.9 µM. 360,000 compounds, 0.98% hits. AID 540308, 2011;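 active means activation above a per-plate cutoff, the mean activation of sample wells on that plate plus 3 SD, cut at about 8% in these data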
ASAP1 inh – inhibitors of human ASAP1 ArfGAP activity, primary screen, biochemical, fluorescence polarization. AID 624377, 2012. ASAP1-stimulated ARF1 GTP hydrolysis, GDP FP detection. inhibition, % at 16.5 µM. 360,000 compounds, 0.19% hits. Arf-GAP with SH3 domain, ANK repeat and PH domain-containing protein 1 (Homo sapiens), …; in the data active means inhibition above about 25%
MC4R barr conf – MC4R beta-arrestin agonists, retest, confirmation, cell-based, luminescence, U2OS | shares compounds with MC4R barr agon | U2OS MC4R beta-arrestin recruitment; scaled DMSO 0%, Melanotan II 100% | activation, % at 8.9 µM | 2,400 compounds, 31% hits;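 active means mean activation across replicates above the hit cutoff set in the earlier primary screen, cut at about 8% in these data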
MOR DOR agonist – agonists of MOR-DOR heterodimerization, counter-screen for MC4R biased agonist project, cell-based, luminescence | shares compounds with MC4R barr agon | U2OS PathHunter beta-arrestin, beta-gal luminescence; percent of deltorphin B response, DMSO zero | activation, % at 9.2 µM | 2,400 compounds, 5.8% hits;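 active means mean activation across replicates exceeds the hit threshold derived in the earlier primary screen, cut at about 18% in these data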
Numbers stand for hits; n = inactive; x = not tested or not shown.

Protein sequences, listed by entry. Tags and fused reporters are not part of them. Residues count along the entry.
ADP-ribosylation factor GTPase-activating protein 1 (Rattus norvegicus), Q62848, UniProt Q62848, whole entry, looked up: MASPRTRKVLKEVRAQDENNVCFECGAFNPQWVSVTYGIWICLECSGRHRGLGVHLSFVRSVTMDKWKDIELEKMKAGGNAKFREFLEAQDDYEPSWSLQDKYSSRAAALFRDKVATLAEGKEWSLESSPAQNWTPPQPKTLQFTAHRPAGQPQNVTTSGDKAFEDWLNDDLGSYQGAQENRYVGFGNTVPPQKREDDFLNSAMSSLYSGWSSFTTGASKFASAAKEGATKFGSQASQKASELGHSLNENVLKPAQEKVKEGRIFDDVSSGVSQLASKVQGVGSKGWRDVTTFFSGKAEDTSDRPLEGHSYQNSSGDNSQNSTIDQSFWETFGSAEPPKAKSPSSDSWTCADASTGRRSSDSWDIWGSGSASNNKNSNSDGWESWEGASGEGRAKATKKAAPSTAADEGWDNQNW
ADP-ribosylation factor GTPase-activating protein 1 (Rattus norvegicus), Q62848, UniProt Q62848, 1-136 limits assumed: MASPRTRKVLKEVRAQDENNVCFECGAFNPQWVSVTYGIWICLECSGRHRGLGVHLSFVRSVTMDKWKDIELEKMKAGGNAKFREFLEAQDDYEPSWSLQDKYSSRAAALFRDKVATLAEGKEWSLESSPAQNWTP
Melanocortin receptor 4 (Homo sapiens), P32245, UniProt P32245, whole entry, looked up: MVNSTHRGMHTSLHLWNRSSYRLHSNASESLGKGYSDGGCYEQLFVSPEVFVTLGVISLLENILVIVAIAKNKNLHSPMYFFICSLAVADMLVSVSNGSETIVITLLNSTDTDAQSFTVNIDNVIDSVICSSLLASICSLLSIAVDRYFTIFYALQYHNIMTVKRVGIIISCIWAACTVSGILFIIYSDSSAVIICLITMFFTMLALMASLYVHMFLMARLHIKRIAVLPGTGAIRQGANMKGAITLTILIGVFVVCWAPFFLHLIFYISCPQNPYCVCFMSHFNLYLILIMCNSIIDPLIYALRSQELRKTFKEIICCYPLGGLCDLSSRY
Neuropilin-1 (Homo sapiens), O14786, UniProt O14786, whole entry, looked up: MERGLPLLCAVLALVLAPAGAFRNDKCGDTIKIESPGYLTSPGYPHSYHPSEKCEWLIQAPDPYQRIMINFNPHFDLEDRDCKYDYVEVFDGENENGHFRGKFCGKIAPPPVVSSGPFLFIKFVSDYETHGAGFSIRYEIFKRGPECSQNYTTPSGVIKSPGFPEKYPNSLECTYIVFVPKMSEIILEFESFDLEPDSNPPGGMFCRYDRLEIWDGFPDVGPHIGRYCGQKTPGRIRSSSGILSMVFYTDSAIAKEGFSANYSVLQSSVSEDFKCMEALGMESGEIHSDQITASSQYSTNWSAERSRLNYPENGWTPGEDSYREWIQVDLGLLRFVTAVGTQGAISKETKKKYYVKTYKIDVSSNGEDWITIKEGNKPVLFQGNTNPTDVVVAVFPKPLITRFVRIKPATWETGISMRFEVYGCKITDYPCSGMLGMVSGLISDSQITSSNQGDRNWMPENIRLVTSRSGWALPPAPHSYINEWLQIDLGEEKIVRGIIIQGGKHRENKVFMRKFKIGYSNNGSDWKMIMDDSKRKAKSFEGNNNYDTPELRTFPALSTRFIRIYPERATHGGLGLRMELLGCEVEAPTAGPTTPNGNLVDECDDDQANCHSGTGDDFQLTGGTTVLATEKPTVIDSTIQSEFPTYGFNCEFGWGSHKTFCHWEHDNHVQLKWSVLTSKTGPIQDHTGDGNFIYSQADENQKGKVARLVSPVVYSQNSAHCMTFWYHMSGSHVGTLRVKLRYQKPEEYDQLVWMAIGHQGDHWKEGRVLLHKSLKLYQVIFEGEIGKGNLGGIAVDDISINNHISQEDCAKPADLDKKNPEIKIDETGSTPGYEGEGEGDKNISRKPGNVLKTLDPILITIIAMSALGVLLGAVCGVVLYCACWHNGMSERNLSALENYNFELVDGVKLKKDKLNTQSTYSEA

SMILES	ARFGAP1 inh	Yeast UUG start	MC4R antag cAMP	CendR NRP1 mod	MC4R barr agon	ASAP1 inh	MC4R barr conf	MOR DOR agonist
O=C(c1ccccc1)c1ccc2nc(-c3ccc(NC(=O)c4ccccc4F)cc3)[nH]c2c1	n	n	n	n	12	n	n	n
O=C(CCSc1nnc2ccccn12)Nc1ccc(F)cc1	n	x	n	n	n	n	x	x
O=C(CCSc1nnc2ccc3ccccc3n12)Nc1ccc(F)cc1	n	n	n	n	39	n	n	n
Cc1cc(C)cc(OCC(O)CN2CCC(CN3C(=O)c4cccc5cccc(c45)C3=O)CC2)c1 (stereo unspecified)	n	n	n	n	31	n	33	n
O=C1c2cccc3cccc(c23)C(=O)N1CC1CCN(CC(O)COc2ccc3ccccc3c2)CC1 (stereo unspecified)	n	n	n	n	55	n	22	n
COc1cccc(OCC(O)CN2CCC(CN3C(=O)c4cccc5cccc(c45)C3=O)CC2)c1 (stereo unspecified)	n	x	n	n	n	n	x	x
CC(=O)N(C)C[C@H]1Oc2cc(-c3ccc(C)cc3)ccc2S(=O)(=O)N([C@H](C)CO)C[C@H]1C	x	n	x	x	x	x	x	x
C[C@@H]1CN([C@H](C)CO)C(=O)c2cc(NC(=O)Cc3ccccc3)ccc2O[C@H]1CN(C)C(=O)NC1CCCCC1	x	n	x	x	x	x	x	x
O=C(NC(=S)NCC1CCCO1)C(c1ccccc1)c1ccccc1 (stereo unspecified)	n	x	n	n	13	n	n	n
Cc1ccccc1C(=O)NC(=S)NCC1CCCO1 (stereo unspecified)	n	n	n	n	n	n	x	x
O=C(N/N=C/c1cc2ccccc2nc1Cl)[C@H]1C[C@@H]1c1ccccc1	n	x	n	n	n	n	x	x
Cc1ccc2cc(/C=N/NC(=O)[C@H]3C[C@@H]3c3ccccc3)c(Cl)nc2c1	n	x	n	n	24	n	n	n
CCC(=O)Nc1ccc2c(c1)OC[C@H](C)N(CC1CCOCC1)C[C@H](C)[C@H](OC)CN(C)C2=O	x	n	x	x	x	x	x	x
Cc1nc(NC(=O)CSc2nc3cccnc3n2C2CCCCC2)sc1C	n	n	n	n	9.6	n	n	n
CCCCCCCCNC(=O)c1cccnc1SCC(=O)Nc1ccc(OC)cc1OC	n	x	n	n	11	n	18	29
COCC(=O)Nc1ccc2c(c1)C(=O)N(C)[C@H]1CC[C@H](CC(=O)NCCc3ccccc3)O[C@@H]1CO2	x	n	x	x	x	x	x	x
O=C(CSc1ncnc2c1oc1ccccc12)Nc1cccc(Cl)c1	n	n	n	n	13	n	n	n
O=S(=O)(c1ccccc1)N1CCCCN2[C@@H](CO)[C@H](c3ccc(-c4ccccc4)cc3)[C@@H]2C1	x	n	x	x	x	x	x	x
Nc1nc(-c2cc(O)ccc2[N+](=O)[O-])cc(-c2ccccc2)c1[N+](=O)[O-]	n	n	n	n	11	n	n	n
C[C@H](CO)N1C[C@H](C)[C@@H](CN(C)S(=O)(=O)c2cn(C)cn2)OCCCC[C@H](C)Oc2ccc(NC(=O)Nc3ccccc3)cc2C1=O	x	n	x	x	x	x	x	x
COc1ccc(S(=O)(=O)Nc2ccc3c(c2)C(=O)N([C@@H](C)CO)C[C@@H](C)[C@@H](CN(C)CC2CCCCC2)OCCCC[C@@H](C)O3)cc1	x	n	x	x	x	x	x	x
NC(c1csc(Nc2ccc(C(=O)c3ccccc3)cc2)n1)C1CCCCC1 (stereo unspecified)	n	n	n	n	11	n	23	25
NC(c1csc(Nc2cc(Oc3ccccc3)ncn2)n1)C1CCCCC1 (stereo unspecified)	n	n	n	n	10	n	28	20
NC(Cc1ccc(F)cc1)c1csc(Nc2ccc(C(=O)c3ccccc3)cc2)n1 (stereo unspecified)	n	n	n	n	13	n	19	24
NC(Cc1ccc(Cl)cc1)c1csc(Nc2ccc(C(=O)c3ccccc3)cc2)n1 (stereo unspecified)	n	n	n	n	12	n	18	19
SMILES	ARFGAP1 inh	Yeast UUG start	MC4R antag cAMP	CendR NRP1 mod	MC4R barr agon	ASAP1 inh	MC4R barr conf	MOR DOR agonist
NC(Cc1ccccc1)c1csc(Nc2ccc(C(=O)c3ccccc3)cc2)n1 (stereo unspecified)	n	n	n	n	n	n	x	x
COc1ccc(C(N)c2csc(Nc3cc(Oc4ccccc4)ncn3)n2)cc1 (stereo unspecified)	n	n	n	n	n	n	x	x
C[C@H]1CN([C@@H](C)CO)C(=O)Cc2cc(N(C)C)ccc2O[C@@H]1CN(C)S(C)(=O)=O	x	n	x	x	x	x	x	x
Cc1ccccc1-c1ccc2c(c1)O[C@@H](CN(C)C)[C@H](C)CN([C@@H](C)CO)S2(=O)=O	x	n	x	x	x	x	x	x
CO[C@H]1CN(C)C(=O)c2ccc(NC(=O)c3ccc(F)cc3)cc2OC[C@@H](C)N(C)C[C@@H]1C	x	n	x	x	x	x	x	x
CCOC(=O)c1[nH]c2ccc(Cl)cc2c1NC(=O)/C=C/c1ccc2c(c1)OCO2	n	x	n	n	38	n	n	n
CCCC(=O)Nc1ccc2c(c1)OC[C@H](C)N(Cc1ccncc1)C[C@H](C)[C@H](OC)CN(C)C2=O	x	n	x	x	x	x	x	x
O=C(NC(=S)Nc1ccc2oc(=O)ccc2c1)c1cccc(F)c1	n	n	n	n	n	n	x	x
O=C(NC(=S)Nc1ccc2oc(=O)ccc2c1)c1cccc(Cl)c1	n	n	n	n	20	n	n	n
CCCC(=O)Nc1ccc2c(c1)OC[C@@H](C)N(C(=O)CC)C[C@H](C)[C@H](OC)CN(C)C2=O	x	n	x	x	x	x	x	x
CCn1cc([N+](=O)[O-])c(C(=O)N2N=C(c3ccc(Cl)c(Cl)c3)CC2c2ccccc2O)n1 (stereo unspecified)	n	x	n	n	n	n	x	x
